Binding of CDR-mutated scFvs to a peptide of the spike HR2 region

Binding partner: SARS-CoV-2 spike HR2 peptide, sequence PDVDLGDISGINAS.

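Phage display of a naive human antibody library on the peptide gave the parent. Library AAYL52 holds single substitutions and randomly drawn double and triple substitutions in the CDRs. AlphaSeq pools MATa yeast showing the antibodies with MATalpha yeast showing the peptide. Binding brings cells together so that they mate, and sequencing counts the barcode pairs among the diploids. The ratio of observed to expected reads was calibrated, replicate by replicate, on BCL2-family standards whose Kd was known from biolayer interferometry. There are three technical replicates.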

Ab-95 is the parent antibody, in scFv form: VH, then the linker GGGGSGGGGSGGGGS, then VL. The heavy chain is unchanged in all variants.
VH: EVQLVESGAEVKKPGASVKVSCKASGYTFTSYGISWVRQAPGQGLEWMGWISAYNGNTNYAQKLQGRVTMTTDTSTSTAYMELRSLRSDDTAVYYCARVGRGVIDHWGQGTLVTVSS
VL: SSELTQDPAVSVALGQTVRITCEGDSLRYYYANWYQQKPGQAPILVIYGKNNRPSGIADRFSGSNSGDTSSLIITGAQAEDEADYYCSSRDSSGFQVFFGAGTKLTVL

Variants are written as CDR1, CDR2 and CDR3 of the light chain (limits as in the source). Parent: EGDSLRYYYAN, GKNNRPS, SSRDSSGFQVF. The read-out is the apparent dissociation constant on a log10 scale (nM): the lower, the stronger. Averages over replicates are reported, and they cover detected replicates only. An entry "nd" has no value in the source: the pair was not observed among the diploids in that replicate. This suggests poor binding but is not conclusive. In this assay the parent's reference entry averaged 2.31; its copy inside this library read 2.25. Nonspecific signal, from three strains lacking the peptide, appeared in 28% of pairings of library AAYL52, centred on 3.91 (5% of these signals below 2.90); values are not corrected for it. Also given: how often the same scFv was detected with the empty control strains, with their mean in brackets.

CDR-L1,CDR-L2,CDR-L3,"replicates, log10 nM","mean, log10 nM",empty controls
EGYSLRYYYAN,GKLNRPS,SSRDSSGDQVF,5.41 / nd / nd,5.41,4 of 9 (3.89)
ELDSLRYYKNN,GKNNRPS,SSRDSSGFQVF,3.18 / nd / nd,3.18,4 of 9 (4.48)
EGDSLRYYYAN,GKNNRPS,SSRDSTTLQVF,nd / nd / nd,nd,2 of 9 (5.14)
EGSSLRYYYAS,GKNNRPS,SSRDSSGAQVF,3.51 / 2.91 / 2.45,2.96,2 of 9 (3.57)
KGPSLRYYYAN,GKNNRPS,SSRDSSGFWVF,nd / nd / nd,nd,2 of 9 (4.10)
MGDSLRYYYAN,GKWGRPS,SSRDSSGFQVF,nd / 3.73 / 4.03,3.88,4 of 9 (3.43)
EGDELRYYYNN,GKKNRPS,SSRDSSGFQVF,nd / 4.50 / nd,4.50,3 of 9 (3.78)
EGDSLKYYYSN,GKNNRPS,SSRDMSGFQVF,2.47 / 2.29 / 2.54,2.44,2 of 9 (3.90)
EGDSLRYYYAN,GKNNRPS,SDRDSSPDQVF,2.94 / 2.98 / 2.73,2.88,4 of 9 (3.77)
EGDSLRYYYAK,GKNNRPS,STRDSSGFQVF,nd / nd / nd,nd,2 of 9 (5.16)
EGDSLRYYYAK,GVNVRPS,SSRDSSGFQVF,3.92 / 5.80 / nd,4.86,2 of 9 (3.41)
RGDSLRYYYAN,GKNNSPS,SSRDSSGRQVF,2.36 / 2.24 / 2.50,2.37,4 of 9 (3.55)
EGDSLRYYYSN,GKNNRPS,SSMRSSGFQVF,nd / nd / nd,nd,1 of 9 (2.63)
IGDSLRYYYAK,GKNGRPS,SSRDSSGFQVF,4.42 / 5.28 / nd,4.85,0 of 9
EGNSLRYYYAH,GKNNRPS,SSRDSSSFQVF,3.32 / 4.84 / 4.26,4.14,4 of 9 (4.41)
EGHSLRYYYAN,GKWNCPS,SSRDSSGFQVF,nd / 4.64 / nd,4.64,1 of 9 (3.16)
EGDSLRYYYAN,GKQNRPS,SSRDSSGFQNF,2.37 / 2.41 / 1.83,2.20,3 of 9 (3.38)
ESDSLRYYYAN,GKNNRPS,SSTDSSGFQVE,3.58 / nd / 3.09,3.34,1 of 9 (4.42)
EGDSLRYYYAN,GKNNRPS,SERDSSIFQNF,3.66 / 3.18 / 3.32,3.38,3 of 9 (4.14)
EGCSLRYYYAN,GKNNRPS,SSRDSSGFMVP,nd / 4.38 / 4.28,4.33,5 of 9 (4.02)
EGDSLFYYYAN,YKNERPS,SSRDSSGFQVF,nd / nd / nd,nd,3 of 9 (3.95)
EGDSLRYYYAN,GQNNRPG,SSRDSSGFQMF,3.50 / 3.06 / 2.49,3.02,4 of 9 (4.09)
EGDSLRYYYAN,GKKNRPS,SLRDSSDFQVF,4.55 / 2.68 / 3.76,3.66,2 of 9 (3.41)
EGDHLRYYYAN,GKNNRPS,MSRDSSGFQVC,1.77 / 1.73 / 1.44,1.65,1 of 9 (3.90)
RHDSLRYYYAN,GKNNRPS,SSRDSSGQQVF,2.96 / 3.37 / 3.29,3.21,5 of 9 (3.92)
EGVSLRQYYAN,GKNNRPS,SSRESSGFQVF,3.87 / 2.83 / nd,3.35,4 of 9 (4.34)
EGDSLRYYYAN,GKNNRPS,ISRDASGFQRF,3.62 / 4.15 / nd,3.88,5 of 9 (3.46)
EGDSLRYYYAN,GPNNRPS,SSTDTSGFQVF,3.22 / nd / nd,3.22,3 of 9 (4.06)
EGGSPRYYYAN,GKNNRPS,SSCDSSGFQVF,3.73 / 3.32 / 3.66,3.57,2 of 9 (4.51)
EKDSLRYYYYN,GWNNRPS,SSRDSSGFQVF,nd / nd / nd,nd,0 of 9

The first 3 entries again:

CDR-L1,CDR-L2,CDR-L3,"replicates, log10 nM","mean, log10 nM",empty controls
EGYSLRYYYAN,GKLNRPS,SSRDSSGDQVF,5.41 / nd / nd,5.41,4 of 9 (3.89)
ELDSLRYYKNN,GKNNRPS,SSRDSSGFQVF,3.18 / nd / nd,3.18,4 of 9 (4.48)
EGDSLRYYYAN,GKNNRPS,SSRDSTTLQVF,nd / nd / nd,nd,2 of 9 (5.14)

Data: MIT Lincoln Laboratory AlphaSeq set, Engelhart et al. 2022, doi:10.1038/s41597-022-01779-4, as distributed in FLAb.